Assay results: US20050239832A1, “Methods of treatment of amyloidosis using bi-cyclic aspartyl protease inhibitors” (priority 2004, published 2005)

Assay: Brain uptake in CF-1 mice after IV administration
Details: 10 μmol/kg IV
Method: The following assay was employed to determine the brain penetration of compounds encompassed by the present invention.
In-life phase: Test compounds were administered to CF-1 (20-30 g) mice at 10 μmol/kg (4 to 7 mg/kg) following IV administration in the tail vein. Two time-points, 5 and 60 min, were collected post dose. Four mice were harvested for heparinized plasma and non-perfused brains at each time-point for a total of 8 mice per compound.
Analytical phase: Samples were extracted and evaporated to dryness, then reconstituted and injected onto a reverse phase chromatographic column while monitoring the effluent with a triple quadrupole mass spectrometer. Quantitation was then performed with a 1/x^2 weighted fit of the least-squares regression from calibration standards prepared in parallel with the in vivo samples. The LOQ is generally 1 ng/mL and 0.5 ng/g for the plasma and brain respectively. Data was reported in micromolar (μM) units. Brain levels were corrected for plasma volumes (16 μL/g).

Substance: N-{1-(3,5-Difluoro-benzyl)-3-[6-(2,2-dimethyl-propyl)-1,2,3,4-tetrahydro-quinolin-4-ylamino]-2-hydroxy-propyl}-acetamide [Example 91.14]
- [Brain/[Plasma] 5 min (5 min post dose): 0.2
- [Brain/[Plasma] 60 min (60 min post dose): 2.2
